# A selection: hits, their analogues and other compounds. The true share with any hit is near 3.7%.
# A549 tox – A549 cytotoxicity, counter-screen for Nrf2 inhibitors | A549 ARE-Fluc cells, CellTiter-Fluor viability, 18-24 h | Potency, µM (doses to about 46 µM), for the others: top-dose activity change, negative = cytotoxicity, usual class: inhibitors | actives 0.16% (n = 390,000) | AID 504648; further: potency means the concentration at half of the fitted maximal effect; on the % scale 0 is the no-effect control and ±100 the full control effect
#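 A549 ARE_Fluc cells in 5% FBS OPTI-MEM were exposed to compounds in concentration-response for 18-24 h at 37 deg C. Viability was read by CellTiter-Fluor fluorescence (Ex 405/Em 525) after 30 min, before the luciferase read.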
# Nrf2 ARE act – activators of Nrf2 (ARE) signaling; AREc32 ARE-luciferase reporter (MCF7-derived line), luminescence, 24 h; actives 0.31% (n = 410,000); AID 624171; Potency, µM (doses to about 46.1 µM), for inactives: at the highest dose activation, usual class: activators; further: potency means the concentration at half of the fitted maximal effect; % of control where 0% means no effect; nearly all actives have a fitted effect of over 65% in size
#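 ARE activation measured as luciferase luminescence (Steady-Glo, 30 min RT) in AREc32_Fluc cells after 24 hr compound exposure at 37 deg C, 5% CO2; cells seeded overnight at 1000/well in OPTI-MEM, 5% FBS.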
# Nrf2 inh – Nrf2 pathway inhibition | A549 ARE-Fluc reporter, luciferase luminescence, 18-24 h | Potency, µM (doses to about 46 µM), inactives show at the top dose activity change, negative = inhibition, hits mostly inhibitors | actives 2.1% (n = 360,000); further: potency means the concentration at half of the fitted maximal effect; on the % scale 0 is the no-effect control and ±100 the full control effect; nearly all actives have a fitted effect of over 60% in size
#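 Cells were seeded and rested 2 h, then exposed to compounds for 18-24 h. CellTiter-Fluor was read first as a viability measure. BugLite was added 15 min before the final luminescent read of ARE-luciferase activity in A549 cells.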
# TCR act – T cell receptor activation. primary human leukocytes, anti-CD3, IL-2 HTRF, 48 h. Potency, µM (top dose mostly 9.22 µM), inactives show at the top dose activation of IL-2 secretion, actives largely listed as activators. 330,000 tested, under 10 active. AID 504894; further: % of control where 0% means no effect
#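 Activity was scored as IL-2 release from primary human leukocytes given only a TCR signal (a-CD3 beads) plus compound for 48 hr. Detection used a two-antibody HTRF format read at 665nm.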
# ClpP mod – qHTS Assay for Activators of ClpP; ATP-dependent Clp protease proteolytic subunit (Bacillus subtilis (strain 168)), P80244; purified B. subtilis ClpP, FRET peptide cleavage, 20 min; Potency, µM (top dose mostly 57.5 µM), inactives show at the highest dose activity change, negative = active; actives 1.9% (n = 340,000); AID 651965, 2013; active means well fitted falling curve with a large enough effect; inconclusive means small, poorly fitted or top-dose-only effect; inactive means no such curve, though single readings can be large or run the other way; further: potency means the concentration at half of the fitted maximal effect; the source files actives as falling curves though it sought activators and does not explain the sign; nearly all actives have a fitted effect of over 65% in size
#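 Buffer: 100 mM Tris/HCl pH8, 100 mM KCl, 0.05% low protease BSA, 2.5% glycerol, 0.01% Tween-20. ClpP 10 microg/mL final; 20 min RT; delta FRET normalized to ADEP and DMSO controls.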
# miR-21 FLuc – miR-21 reporter, rising signal | AID 2288 | HeLa miR-21 FLuc reporter, luciferase, 48 h | 340,000 tested, under 10 active | Potency, µM (titrated, usually from 38.3 µM), for the others: at the top dose reporter change, positive = more light; active = well fitted rising curve with a large enough effect; inconclusive = small, poorly fitted or top-dose-only effect; inactive = no such curve, though single readings can be large or run the other way;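 also: % of control where 0% means no effect; miR-21 action dims this reporter so a rising signal means less miR-21 action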
#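 HeLa cells stably expressing CMV-driven firefly luciferase with a downstream miR-21 binding sequence, endogenously expressing miR-21, were treated with titrations (up to about 40uM final) for 48 hours at 37 degree Celsius. Luciferase luminescence was read after lysis.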
# The depositor's hits bear a star; ? = inconclusive; . = no result given; [ ] = remark or other dose. Unless noted, the call rests on the fitted dose curve; in most records, active means well fitted curve in the direction sought with a large enough effect; inconclusive means small, poorly fitted or top-dose-only effect, or another doubt; inactive means no such curve, though single readings can be large; an effect the other way counts as inactive or inconclusive.
Structure | A549 tox | Nrf2 ARE act | Nrf2 inh | TCR act | ClpP mod | miR-21 FLuc
C[C@H](CO)N1C[C@H](C)[C@@H](CN(C)S(=O)(=O)c2cn(C)cn2)OCc2cn(nn2)CCCC1=O | . | -1% | . | . | -2% | .
CC(C)(C)OC(=O)N(c1cccc2cccnc12)S(=O)(=O)c1ccccc1Br | -8% | . | ? | . | . | .
COc1ccc(NS(=O)(=O)c2ccc3[nH]c(=O)ccc3c2)cc1OC | ? | 0% | ? | . | 0% | ?
CC1=C(C(=O)N2CCOCC2)CC(CC(=O)NCCCN(C)C)C(=O)N1Cc1ccc(F)cc1 (configuration not stated) | . | 0% | . | . | -1% | .
Cc1ccc(C(=O)Nc2cccnc2)cc1S(=O)(=O)N1CCCC1 | 0% | 0% | ? | -4% | 0% | -10%
Cc1ccc(C(=O)Nc2cccnc2)cc1S(=O)(=O)N1CCCCC1 | -4% | 1% | 21µM* | 2% | . | -1%
CCCCCCCCOC(=O)c1cc([N+](=O)[O-])c(Sc2ncnc3nc[nH]c23)c([N+](=O)[O-])c1 | -24% | 21% | -20% | -6% | 3% | .
Cc1csc2nc(=O)c3ccccc3n12 | 9% | 2% | -6% | -2% | 11µM* | -5%
Cc1nc2scc(C)n2c(=O)c1S(=O)(=O)N1CCN(c2ccccc2)CC1 | -5% | -1% | -22% | -3% | . | -12%
CCOc1ccc(NC(=O)Cn2nc(-c3ccncc3)ccc2=O)cc1 | -1% | 0% | . | . | 0% | -1%
O=C(CCl)Nc1cc(SCC(O)CO)cc([N+](=O)[O-])c1 (configuration not stated) | 6.5µM* | -2%[9.22 µM] | 4.6µM* | -1% | . | ?
CC(C)(C)OC(=O)NCC(=O)NNC(=O)c1cc2ccccc2[nH]1 | 2% | . | 4% | . | . | .

# 2 entries drawn at random from those above, as already listed:
Structure | A549 tox | Nrf2 ARE act | Nrf2 inh | TCR act | ClpP mod | miR-21 FLuc
O=C(CCl)Nc1cc(SCC(O)CO)cc([N+](=O)[O-])c1 (configuration not stated) | 6.5µM* | -2%[9.22 µM] | 4.6µM* | -1% | . | ?
CC(C)(C)OC(=O)N(c1cccc2cccnc12)S(=O)(=O)c1ccccc1Br | -8% | . | ? | . | . | .

# The main list resumes; the four compounds before the break are reprinted first.
Structure | A549 tox | Nrf2 ARE act | Nrf2 inh | TCR act | ClpP mod | miR-21 FLuc
Cc1nc2scc(C)n2c(=O)c1S(=O)(=O)N1CCN(c2ccccc2)CC1 | -5% | -1% | -22% | -3% | . | -12%
CCOc1ccc(NC(=O)Cn2nc(-c3ccncc3)ccc2=O)cc1 | -1% | 0% | . | . | 0% | -1%
O=C(CCl)Nc1cc(SCC(O)CO)cc([N+](=O)[O-])c1 (configuration not stated) | 6.5µM* | -2%[9.22 µM] | 4.6µM* | -1% | . | ?
CC(C)(C)OC(=O)NCC(=O)NNC(=O)c1cc2ccccc2[nH]1 | 2% | . | 4% | . | . | .
Cc1cc(C)c(S(=O)(=O)N2CCC(N3CCN(Cc4ccccc4)C(=O)C3=O)CC2)c(C)c1 | 16% | -1% | 0% | . | -1% | 3%
CCOc1ccc2[nH]c(=O)c(C(c3nnnn3C3CCCCC3)N3CCN(CC)CC3)cc2c1 (configuration not stated) | 2% | -1% | 17% | -3% | 25µM* | -8%
COc1ccc2[nH]c(=O)c(C(c3nnnn3C3CCCC3)N3CCN(Cc4ccc5c(c4)OCO5)CC3)cc2c1 (configuration not stated) | -25% | 0% | 5% | -1% | 28µM* | -1%
CCOc1ccc2[nH]c(=O)c(C(c3nnnn3C3CCCCC3)N3CCN(C)CC3)cc2c1 (configuration not stated) | -7% | 0% | -1% | 1% | 25µM* | -5%
CN(C)c1cc(N2CCOCC2)nc(C#N)n1 | . | . | . | . | -1% | .
O=[N+]([O-])c1ccc(/C=C/c2ccnc3ccccc23)cc1 | . | . | . | . | -8% | .
CSc1cccc(NC(=O)c2ccc3c(c2)CCCN3S(C)(=O)=O)c1 | ? | -1% | ? | . | -27% | ?
CC(=O)Nc1ccc(NC(=O)Cn2cc3c(n2)CCCCC3)cc1 | 3% | -1% | 6% | . | 2% | -10%
CC1CCN(S(=O)(=O)c2cccc(-c3cn4cc(Cl)ccc4n3)c2)CC1 | -5% | 0% | -3% | -57% | 35µM* | -17%
COc1ccc(-c2noc(-c3ccc(N4CCC(C)CC4)c([N+](=O)[O-])c3)n2)cc1OC | -17% | 0% | 21µM* | . | -2% | 28%
COc1ccc(-c2noc(-c3ccc(N4CCOCC4)c([N+](=O)[O-])c3)n2)cc1OC | -4% | -1% | -6% | . | -1% | -2%
O=[N+]([O-])c1cc(-c2nc(-c3ccccc3)no2)ccc1N1CCOCC1 | 0% | 7% | 23µM* | . | 1% | 19%

# Next section.
canonical_smiles,A549 tox,Nrf2 ARE act,Nrf2 inh,TCR act,ClpP mod,miR-21 FLuc
CCc1ccc(-n2nc(C)c3c(C)cc(=O)n(CC(=O)Nc4cc(C)ccc4C)c32)cc1,-1%,0%,7%,.,-8%,23%
c1ccc(CN2CCC(CNc3ncnc4ccccc34)C2)cc1 (configuration not stated),-13%,0%,21µM*,2%,.,.
c1ccc(CN2CCC(Nc3nc(-c4ccccc4)nc4ccccc34)CC2)cc1,?,-1%,?,0%,-1%,?
COc1ccc(CNc2oc(-c3ccc(COc4ccccc4C)o3)nc2C#N)cc1,0%,0%,21µM*,.,4%,11%
COc1ccc(Nc2oc(-c3ccc(COc4ccc(OC)cc4)o3)nc2C#N)cc1,-11%,5%,-7%,.,16%,-1%
COc1ccc(OCc2ccc(-c3nc(C#N)c(NCc4ccccc4)o3)o2)cc1,?,7%,?,.,11µM*,-9%
COc1ccc(CNc2oc(-c3ccc(COc4ccc(Cl)cc4)o3)nc2C#N)cc1,-19%,4%,-23%,.,13µM*,1%
COCCCNc1oc(-c2ccc(COc3ccccc3C)o2)nc1C#N,-5%,0%,?,.,4%,-8%
O=S1(=O)CCO[C@H]2CCCC[C@@H]2N1Cc1ccc(Cl)cc1,.,.,.,.,1%,.
N#Cc1c(SCc2c(Cl)cccc2Cl)nc(N)[nH]c1=S,1%,-1%,0%,-2%,0%,.
CC(=O)Nc1ccc(S(=O)(=O)NCc2ccc3c(c2)CCN3C(C)=O)cc1,0%,2%,.,.,0%,-8%
O=S(=O)(c1ccc2c(c1)CCC2)N1CCNCC1,2%,-1%,-3%,-4%,28µM*,.
O=C(Nc1ccccn1)c1ccc(Br)c(S(=O)(=O)N2CCCCC2)c1,-1%,0%,-3%,0%[46.1 µM],13µM*,-1%
CC1CCN(S(=O)(=O)c2cc(C(=O)N3CCN(c4ncccn4)CC3)ccc2Br)CC1,1%,0%,23µM*,5%,-12%,12%
O=C(Nc1nncs1)c1ccc(Br)c(S(=O)(=O)N2CCCC2)c1,-1%,0%,-24%,-8%,32µM*,-7%
CCCNC(=O)C1(C)CCN(C(=O)c2ccc(OC(F)F)cc2)C1 (configuration not stated),.,0%[9.22 µM],.,.,-1%,.
N#Cc1ccccc1S(=O)(=O)N1CCN(S(=O)(=O)c2ccc3c(c2)OCCO3)CC1,8%,.,18%,.,.,.
Cc1cc(C)c2sc(N(CCCN(C)C)C(=O)c3ccc(Br)s3)nc2c1,?,-2%,15µM*,10%,-15%,-1%
Cc1cc(C)c2sc(N(CCN(C)C)C(=O)c3c(F)cccc3F)nc2c1,2%,4%,12%,0%,.,2%
O=S1(=O)CC(N2CCCCC2)CN1Cc1cn(Cc2cccc(C(F)(F)F)c2)nn1 (configuration not stated),.,0%,.,.,-1%,.
